Test results as given in patent US20100256086A1, “NON-HYDROLYZABLE NUCLEOSIDE DI- OR TRI-PHOSPHATE DERIVATIVES AND USES THEREOF” (priority 2007, published 2010).

Tested on: alkaline phosphatase

## 2-MeS-ATP-α-B [Compound 1]
After 12 min at 37° C.
  fraction remaining in alkaline phosphatase: 40%
After 100 min, HPLC-MS
  amount detectable in alkaline phosphatase: only traces
